The test system of this experiment is Sigma 2 receptor. As to the kind of experiment: Inhibitory activity against opioid sigma 2 receptor in rat cerebral cortex using [3H]DTG (+300 nM (+)pentazocine) as radio ligand at pH 7.5 for 120 min at 22 degree C.

As to `O=C1[C@@H]2Cc3ccccc3CN2C(=O)N1C1CCN(Cc2ccccc2)CC1`, the IC50 stood at 24 nM.

What is called IC50 is the concentration that gives 50% inhibition. Higher therefore signals a need for much substance.
